{
  "source": "PubChem BioAssay (EPA / NIEHS)",
  "note": "For part of these data: The hits were mostly taken out for another list; the other results follow. Inconclusive results are not listed. The list shows a part of the results, in another mix than the full data. Active and inactive are the calls of the source. How the source made its calls, unless noted: active means hit-call score of the fitted dose curve at least 0.9, where 1 is the maximum; inactive means score below 0.9.",
  "data": [
    {"test": "ATG_RORE_CIS: Attagene CIS-FACTORIAL HepG2 Assay for human RAR-related Orphan Receptor Element (RORE) (AID 2282959)", "settings": "HepG2 Attagene cis-factorial RORE reporter, mRNA; actives raise or lower the signal", "values": [
      {"molecule": "[O-]/[N+](=N\\O)c1ccccc1", "outcome": "inactive"},
      {"molecule": "C=C[C@](C)(O)CC[C@@H]1[C@@]2(C)CCCC(C)(C)[C@@H]2CC[C@@]1(C)O", "outcome": "inactive"},
      {"molecule": "COc1ccc(-c2coc3cc(O)ccc3c2=O)cc1", "outcome": "inactive"},
      {"molecule": "CCCCCCCCOC(=O)c1ccc(O)cc1", "outcome": "inactive"},
      {"molecule": "O=c1[nH]c(=O)n([C@H]2CCCO2)cc1F", "outcome": "inactive"},
      {"molecule": "CCCCCC1=CCCC1=O", "AC50": "active: 163 µM"},
      {"molecule": "NCCNc1cccc2ccccc12", "AC50": "active: 55.6 µM"},
      {"molecule": "CCOC(=O)[C@H](C)Oc1ccc(Oc2nc3ccc(Cl)cc3o2)cc1", "outcome": "inactive"},
      {"molecule": "NCCCN1CCN(CCCN)CC1", "outcome": "inactive"},
      {"molecule": "CCOC(=O)NNc1nncc2ccccc12", "outcome": "inactive"},
      {"molecule": "C=CC(=O)OCCCCCCOC(=O)C=C", "AC50": "active: 40.1 µM"},
      {"molecule": "COCCOc1cc2cc(C(=O)NC3CCN(C(C)C)CC3)n(CC(=O)Nc3ccc(Cl)cn3)c2cn1", "AC50": "active: 100 µM"},
      {"molecule": "c1cc(C(c2ccc(OCC3CO3)cc2)C(c2ccc(OCC3CO3)cc2)c2ccc(OCC3CO3)cc2)ccc1OCC1CO1", "note": "(stereo not given)", "AC50": "active: 49.1 µM"},
      {"molecule": "COC(=O)c1ccc(O)cc1", "outcome": "inactive"},
      {"molecule": "c1ccc(-c2nc3ccccc3[nH]2)cc1", "outcome": "inactive"},
      {"molecule": "COC(OC)(C(=O)c1ccccc1)c1ccccc1", "AC50": "active: 41.8 µM"},
      {"molecule": "O=C(C(Cl)Cl)N1CCOC12CCCCC2", "outcome": "inactive"},
      {"molecule": "O=C1CCC(N2C(=O)c3ccccc3C2=O)C(=O)N1", "note": "(stereo not given)", "outcome": "inactive"},
      {"molecule": "Nc1ccc(N)c(Cl)c1", "outcome": "inactive"},
      {"molecule": "C=C[Si](OCCOC)(OCCOC)OCCOC", "outcome": "inactive"},
      {"molecule": "O=C(O)c1snc(Cl)c1Cl", "outcome": "inactive"},
      {"molecule": "COC(=O)c1ccc([N+](=O)[O-])cc1", "outcome": "inactive"},
      {"molecule": "Cc1ccc2oc(=O)ccc2c1", "outcome": "inactive"},
      {"molecule": "COc1ccc(NC(C)=O)cc1N", "outcome": "inactive"},
      {"molecule": "Cc1cc(C(C)(C)C)c(O)c(C(C)(C)C)c1", "outcome": "inactive"},
      {"molecule": "CC(=O)[C@@]1(O)CC[C@H]2[C@@H]3C[C@H](C)C4=CC(=O)C=C[C@]4(C)[C@@]3(F)[C@@H](O)C[C@@]21C", "outcome": "inactive"},
      {"molecule": "CCC(O)CO", "note": "(stereo not given)", "outcome": "inactive"}
    ]},
    {"test": "TOX21_p53_BLA_p4_viability: Viability Assessment in the Tox21 HCT-116 p53 Agonism Beta-lactamase Assay, Phase 4 (AID 2283597; active means hit-call score of the fitted dose curve at least 0.9, where 1 is the maximum;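 further: hits lower the luminescence signal meaning cytotoxicity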)", "settings": "not given", "outline": "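Readout: ATP luminescence (CellTiter-Glo), measured 30 min after reagent addition at RT. The reagent followed a 2 h CCF4-AM incubation, and the cells had been exposed to compound for 16 h at 37C.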", "values": [
      {"molecule": "CCOC(=O)C1=C[C@@H](OC(CC)CC)[C@H](NC(C)=O)[C@@H](N)C1", "outcome": "inactive"},
      {"molecule": "CCN[C@@H]1C[C@H](N)[C@@H](OC2OC(CN)=CCC2N)[C@H](O)[C@H]1O[C@H]1OC[C@](C)(O)[C@H](NC)[C@H]1O", "note": "(stereo not given in full)", "outcome": "inactive"},
      {"molecule": "CCN(CCO)CCCC(C)Nc1ccnc2cc(Cl)ccc12", "note": "(stereo not given)", "outcome": "inactive"}
    ]}
  ]
}
